# Permeability data for macrocyclic peptides

Values of Townsend et al. 2020, doi:10.26434/chemrxiv.13335941.v1, as listed in CycPeptMPDB.

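The data file gives no further conditions (lipid, pH, time, direction or concentration), and values from different papers need not be comparable. The list need not hold all peptides of the study. Peptides that the database sets to -10, its floor, are left out.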

PAMPA is the parallel artificial membrane permeability assay, which has no cells and reads passive diffusion.
P is given in units of 10^-6 cm/s (from log10 values with two decimals); larger means faster passage.

| structure (SMILES) | PAMPA (10^-6 cm/s) |
|---|---|
| CC(C)C[C@@H]1NC(=O)[C@@H](C)NC(=O)[C@@H]2CCCN2C(=O)[C@H](Cc2ccccc2)NC(=O)[C@H](CC(C)C)NC(=O)[C@@H]2CCCN2C(=O)[C@H](CC(C)C)NC1=O | 0.093 |
| CC(C)C[C@@H]1NC(=O)[C@@H]2CCCN2C(=O)[C@@H](CC(C)C)NC(=O)[C@H](CC(C)C)N(C)C(=O)[C@@H](C)N(C)C(=O)[C@H]2CCCN2C(=O)[C@H](Cc2ccccc2)NC1=O | 0.44 |
| CC(C)C[C@@H]1C(=O)N[C@H](CC(C)C)C(=O)N2CCC[C@H]2C(=O)N(C)[C@H](CC(C)C)C(=O)N[C@@H](Cc2ccccc2)C(=O)N2CCC[C@@H]2C(=O)N(C)[C@H](C)C(=O)N1C | 11 |
| CC(C)C[C@@H]1NC(=O)[C@@H](C)N(C)C(=O)[C@@H]2CCCN2C(=O)[C@H](Cc2ccccc2)NC(=O)[C@@H](CC(C)C)N(C)C(=O)[C@@H]2CCCN2C(=O)[C@@H](CC(C)C)NC1=O | 3.7 |
| CC(C)C[C@@H]1C(=O)N2CCC[C@H]2C(=O)N(Cc2ccccc2)CC(=O)N[C@@H](Cc2ccccc2)C(=O)N[C@H](C)C(=O)N(C)[C@H](CC(C)C)C(=O)N1C | 4.3 |
| CC(C)C[C@@H]1NC(=O)[C@@H](C)N(C)C(=O)[C@H]2CCCN2C(=O)[C@H](Cc2ccccc2)NC(=O)[C@H](CC(C)C)N(C)C(=O)[C@H]2CCCN2C(=O)[C@@H](CC(C)C)NC1=O | 2.6 |
| CC(C)C[C@H]1NC(=O)[C@H](C)NC(=O)[C@H](Cc2ccccc2)NC(=O)CN(Cc2ccccc2)C(=O)[C@H]2CCCN2C(=O)[C@H](CC(C)C)N(C)C1=O | 3.5 |
| CC(C)C[C@@H]1C(=O)N(Cc2ccccc2)CC(=O)N2CCC[C@@H]2C(=O)N(Cc2ccccc2)CC(=O)N[C@@H](Cc2ccccc2)C(=O)N(C)[C@@H](C)C(=O)N1C | 1.3 |
| CC(C)C[C@@H]1NC(=O)[C@H](C)N(C)C(=O)[C@H]2CCCN2C(=O)[C@H](Cc2ccccc2)NC(=O)[C@H](CC(C)C)N(C)C(=O)[C@@H]2CCCN2C(=O)C[C@H](Cc2ccccc2)NC1=O | 5.4 |
| CC(C)C[C@@H]1NC(=O)[C@H](C)N(C)C(=O)[C@H](Cc2ccccc2)NC(=O)[C@H](CC(C)C)NC(=O)[C@@H]2CCCN2C(=O)C[C@H](Cc2ccccc2)NC1=O | 0.83 |
| CC(C)C[C@@H]1C(=O)N[C@@H](Cc2ccccc2)C(=O)N2CCC[C@@H]2C(=O)N(C)[C@H](C)C(=O)N(C)[C@@H](CC(C)C)C(=O)N(Cc2ccccc2)CC(=O)N2CCC[C@@H]2C(=O)N1C | 1.8 |
| CC(C)C[C@@H]1C(=O)N[C@@H](Cc2ccccc2)C(=O)N2CCC[C@H]2C(=O)N[C@@H](C)C(=O)N(C)[C@@H](CC(C)C)C(=O)N[C@@H](Cc2ccccc2)CC(=O)N2CCC[C@H]2C(=O)N1C | 0.63 |
| CC(C)C[C@@H]1NC(=O)[C@@H](CC(C)C)NC(=O)[C@@H](C)N(C)C(=O)[C@H]2CCCN2C(=O)[C@H](Cc2ccccc2)NC(=O)[C@@H](CC(C)C)N(C)C(=O)[C@H]2CCCN2C1=O | 5 |

Extract of 2 entries:

structure (SMILES)	PAMPA (10^-6 cm/s)
CC(C)C[C@@H]1NC(=O)[C@@H]2CCCN2C(=O)[C@@H](CC(C)C)NC(=O)[C@H](CC(C)C)N(C)C(=O)[C@@H](C)N(C)C(=O)[C@H]2CCCN2C(=O)[C@H](Cc2ccccc2)NC1=O	0.44
CC(C)C[C@@H]1NC(=O)[C@@H](C)N(C)C(=O)[C@@H]2CCCN2C(=O)[C@H](Cc2ccccc2)NC(=O)[C@@H](CC(C)C)N(C)C(=O)[C@@H]2CCCN2C(=O)[C@@H](CC(C)C)NC1=O	3.7